Values quoted from earlier work in patent US20130289019A1, “METHODS OF TREATING BEHAVIORIAL AND/OR MENTAL DISORDERS” (AMAZING GRACE, INC., priority 2012, published 2013).

Amino acid sequences for entries named in this document (tags omitted).
UniProt P08172, whole entry: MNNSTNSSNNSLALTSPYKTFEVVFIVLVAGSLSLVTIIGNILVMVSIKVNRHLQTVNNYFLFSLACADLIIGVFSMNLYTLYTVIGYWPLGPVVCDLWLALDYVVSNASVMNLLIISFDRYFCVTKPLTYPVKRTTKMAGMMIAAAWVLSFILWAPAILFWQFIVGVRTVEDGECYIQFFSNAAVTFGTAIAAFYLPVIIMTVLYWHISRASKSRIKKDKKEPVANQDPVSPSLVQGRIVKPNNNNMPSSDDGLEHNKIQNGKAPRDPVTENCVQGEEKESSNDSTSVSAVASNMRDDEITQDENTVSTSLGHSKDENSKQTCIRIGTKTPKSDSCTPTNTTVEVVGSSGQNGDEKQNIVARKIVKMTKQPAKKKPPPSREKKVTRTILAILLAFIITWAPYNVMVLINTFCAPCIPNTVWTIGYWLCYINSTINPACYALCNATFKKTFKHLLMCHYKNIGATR

Target: M2 receptors (Homo sapiens, UniProt P08172)
Settings: Billard et al. 1995; cited from earlier work

For CN1[C@@H]2C[C@@H](OC(=O)[C@H](CO)c3ccccc3)C[C@H]1[C@@H]1O[C@@H]12 [Scopolamine], the Ki is listed as 0.88 nM.
